PubChem BioAssay AID1745845 (National Center for Advancing Translational Sciences (NCATS), 2022)
The entries are a selection whose mix differs from that of the whole data set. Records with an inconclusive call do not appear. Entries that show only a call come without a potency. Some salts or complexes appear as unconnected parts, following the source record. Activity calls are given as the source filed them. Calls come from the whole dose curve; as a rule, active = well fitted inhibition curve with a large enough effect; inconclusive = small, poorly fitted or top-dose-only effect; inactive = no such curve, though single readings can be large or run the other way.

test: Primary qHTS for Inhibitors of ATXN expression; details: HEK-293 ATXN2-luciferase reporter, luminescence, 24 h; series mostly up to 57 µM; note: nearly all actives have a fitted effect of over 55% in size
Potency is the fitted concentration of half-maximal effect.

Row | Structure (SMILES) | Potency
1 | CCC(c1nnnn1C1CCCC1)N1CCC(n2c(=O)[nH]c3ccccc32)CC1 (stereo unspecified) | inactive
2 | COc1ccc(C(=O)NCC2(N3CCCCC3)CCCCC2)c(OC)c1OC | inactive
3 | COc1ccc(C(=O)NCC2(N3CCCCC3)CCCCC2)cc1 | inactive
4 | CCCCn1nnnc1C(c1cccs1)N1CCC(n2c(=O)[nH]c3ccccc32)CC1 (stereo unspecified) | inactive
5 | CCCCn1nnnc1C(CC)N1CCC(n2c(=O)[nH]c3ccccc32)CC1 (stereo unspecified) | inactive
6 | O=C(NCC1(N2CCCCC2)CCCCC1)c1cccs1 | inactive
7 | O=C(NCC1(N2CCCCC2)CCCCC1)c1ccc(=O)[nH]c1 | inactive
8 | CCOC(=O)N1CCC(=O)CC1 | inactive
9 | Cc1cccc(NC2(C#N)CCN(Cc3ccccc3)CC2)c1 | inactive
10 | CSc1ccccc1C(=O)NCC1(N2CCCCC2)CCCCC1 | inactive
11 | Cc1cc(C)cc(N(C(=O)c2ccccc2)C2CCN(C(=O)OC(C)(C)C)CC2)c1 | inactive
12 | O=c1[nH]c2ccccc2n1C1CCN(C(c2ccccc2OC(F)(F)F)c2nnnn2C2CCCCC2)CC1 (stereo unspecified) | inactive
13 | O=C(NCC1(N2CCCCC2)CCCCC1)c1ccc(Cl)nc1 | inactive
14 | O=C(NCC1(N2CCOCC2)CCCCC1)c1cc2ccccc2o1 | inactive
15 | O=C1C(O)=C([N+](=O)[O-])C(=O)C(O)=C1[N+](=O)[O-] | inactive
16 | COc1ccc(Cl)cc1C(=O)NCC1(N2CCOCC2)CCCCC1 | inactive
17 | O=c1[nH]c2ccccc2n1C1CCN(C(c2cc3ccccc3o2)c2nnnn2C2CCCCC2)CC1 (stereo unspecified) | inactive
18 | O=C(OC1CN2CCC1CC2)C1c2ccccc2Oc2ccccc21 (stereo unspecified) | inactive
19 | O=C(NCC1(N2CCCCC2)CCCCC1)c1ccc(Cl)s1 | inactive
20 | CCCCn1nnnc1C(c1ccc(OC)cc1)N1CCC(n2c(=O)[nH]c3ccccc32)CC1 (stereo unspecified) | inactive
21 | O=C1CCN(Cc2ccccc2)CC1 | inactive
22 | CC(C)(C)n1nnnc1C(c1ccccc1)N1CCC(n2c(=O)[nH]c3ccccc32)CC1 (stereo unspecified) | inactive
23 | O=C(NCC1(N2CCOCC2)CCCCC1)c1ccc(Cl)cc1 | inactive
24 | CCOc1ccc(C)cc1CN(CCCl)CCCl | inactive
25 | COc1ccccc1C(=O)NCC1(N2CCOCC2)CCCCC1 | inactive
26 | CCOC(=O)N1CCC(Nc2ccc(F)cc2)CC1 | inactive

Row | Structure (SMILES) | Potency
27 | COc1ccc(NC2CCN(CCc3ccccc3)CC2)c(OC)c1 | inactive
28 | O=C(NCC1(N2CCCCC2)CCCCC1)c1ccc(F)cc1 | inactive
29 | CCCCOc1ccc(C(=O)NCC2(N3CCOCC3)CCCCC2)cc1 | inactive
30 | O=P1(N(CCCl)CCCl)SCCCS1 | inactive
31 | CCOC(=O)C(=O)CBr | inactive
32 | CCOC(=O)N1CCC(Nc2cccc(C)c2)CC1 | inactive
33 | O=c1[nH]c2ccccc2n1C1CCN(C(c2cccc3ccccc23)c2nnnn2C2CCCC2)CC1 (stereo unspecified) | inactive
34 | O=C(NCC1(N2CCCCC2)CCCCC1)c1ccc(OC(F)F)cc1 | inactive
35 | N#CC1(Nc2ccccc2)CCN(CCc2ccccc2)CC1 | inactive
36 | CCN1CCC(Nc2ccc(Cl)cc2)CC1 | inactive
37 | CSc1ccc(C(=O)NCC2(N3CCOCC3)CCCCC2)cc1 | inactive
38 | CCOc1ccc(C(=O)NCC2(N3CCOCC3)CCCCC2)cc1 | inactive
39 | O=C(NCC1(N2CCCCC2)CCCCC1)c1cccc([N+](=O)[O-])c1 | inactive
40 | O=C(NCC1(N2CCCCC2)CCCCC1)c1cccc(C(F)(F)F)c1 | inactive
41 | O=C(NCC1(N2CCOCC2)CCCCC1)c1cc(=O)[nH]c2ccccc12 | inactive
42 | COc1cc(C(=O)NCC2(N3CCCCC3)CCCCC2)ccc1OC(F)F | inactive
43 | COc1ccc(NC2CCN(C(=O)OC(C)(C)C)CC2)cc1 | inactive
44 | CC(C)c1ccc(C(=O)NCC2(N3CCOCC3)CCCCC2)cc1 | inactive
45 | CN1CCN(CCOC(=O)C(O)(c2ccccc2)c2ccccc2)CC1 | inactive
46 | CC(C)c1ccc(NC2CCN(C(=O)OC(C)(C)C)CC2)cc1 | inactive
47 | CN(C)c1cccc(C(=O)NCC2(N3CCCCC3)CCCCC2)c1 | inactive
48 | O=[N+]([O-])c1cc([N+](=O)[O-])c(OC2CCCCC2O)c([N+](=O)[O-])c1 (stereo unspecified) | inactive
49 | COc1ccc(CN(CCCl)CCCl)cc1Cl | inactive
50 | CCC(c1nnnn1C(C)(C)C)N1CCC(n2c(=O)[nH]c3ccccc32)CC1 (stereo unspecified) | inactive
51 | COc1cc(OC)c(C(=O)NCC2(N(C)C)CCCCC2)cc1OC | inactive
52 | O=C(OC1CN2CCC1CC2)c1ccc([N+](=O)[O-])cc1 (stereo unspecified) | inactive

Row | Structure (SMILES) | Potency
53 | O=C(NCC1(N2CCCCC2)CCCCC1)c1cncc(Br)c1 | inactive
54 | COc1ccc2c(c1O)-c1c(O)c(OC)cc3c1[C@H](C2)[N+](C)(C)CC3.O=[N+]([O-])c1cc([N+](=O)[O-])c([O-])c([N+](=O)[O-])c1[O-] | inactive
55 | CN1CCC(Nc2cccc(F)c2)CC1 | inactive
56 | COc1ccc(C(c2nnnn2C2CCCC2)N2CCC(n3c(=O)[nH]c4ccccc43)CC2)cc1 (stereo unspecified) | inactive
57 | CCCOc1ccc(C(=O)NCC2(N(C)C)CCCCC2)cc1OC | inactive
58 | O=C(NCC1(N2CCOCC2)CCCCC1)c1ccccc1Br | inactive
59 | CCCCn1nnnc1C(c1ccccc1)N1CCC(n2c(=O)[nH]c3ccccc32)CC1 (stereo unspecified) | inactive
60 | O=C(NCC1(N2CCOCC2)CCCCC1)c1cc(Br)ccc1Cl | inactive
61 | CCC(=O)N(c1ccccc1)C1CCNCC1 | inactive
62 | O=c1[nH]c2ccccc2n1C1CCN(C(c2cccs2)c2nnnn2C2CCCCC2)CC1 (stereo unspecified) | active: 31.6 µM
63 | O=c1[nH]c2ccccc2n1C1CCN(C(c2ccnc3ccccc23)c2nnnn2C2CCCC2)CC1 (stereo unspecified) | inactive
64 | CCOC(=O)N1CCC(Nc2ccc(C)cc2)CC1 | inactive
65 | N/C(=N\O)c1c(N)no[n+]1[O-] | inactive
66 | O=C(OC1CN2CCC1CC2)C1c2ccccc2C=Cc2ccccc21 (stereo unspecified) | inactive
67 | CCc1cc(C(=O)NCC2(N3CCCCC3)CCCCC2)sc1C | inactive
68 | O=C(NCC1(N2CCOCC2)CCCCC1)c1ccccc1[N+](=O)[O-] | inactive
69 | N#Cc1ccc(C(=O)NCC2(N3CCCCC3)CCCCC2)cc1 | inactive
70 | O=C(NCC1(N2CCOCC2)CCCCC1)c1ccc([N+](=O)[O-])cc1 | inactive
71 | CC(C)(C)OC(=O)N1CCC(N(C(=O)c2ccccc2)c2ccc(Cl)cc2)CC1 | inactive
72 | CCOC(=O)C(CC)C1=NC(C)(C)Cc2ccccc21.O=[N+]([O-])c1cc([N+](=O)[O-])c(O)c([N+](=O)[O-])c1 (stereo unspecified) | inactive
73 | CN(C)C1(CNC(=O)c2cccc(C#N)c2)CCCCC1 | inactive
74 | CCCN1CCC(Nc2cc(OC)cc(OC)c2)CC1 | inactive
75 | O=C(NCC1(N2CCOCC2)CCCCC1)c1ccccc1 | inactive
76 | c1ccc(CN2CCC(Nc3ccccc3)CC2)cc1 | inactive
77 | CCC(c1nnnn1C1CCCCC1)N1CCC(n2c(=O)[nH]c3ccccc32)CC1 (stereo unspecified) | inactive
78 | CC(=O)N(c1ccccc1)C1CCNCC1 | inactive

Row | Structure (SMILES) | Potency
79 | COc1cccc(C(c2nnnn2C2CCCCC2)N2CCC(n3c(=O)[nH]c4ccccc43)CC2)c1OC (stereo unspecified) | inactive
80 | CN(C)C1(CNC(=O)c2ccc(C(C)(C)C)cc2)CCCCC1 | inactive
81 | COc1cc(OC)cc(C(=O)NCC2(N3CCCCC3)CCCCC2)c1 | inactive
82 | Fc1ccccc1NC1CCN(Cc2ccccc2)CC1 | inactive
83 | Cc1ccc(C(=O)NCC2(N3CCCCC3)CCCCC2)o1 | inactive
84 | Cc1ccc(NC2(C#N)CCN(Cc3ccccc3)CC2)cc1 | inactive
85 | CC(C)(C)n1nnnc1C(c1ccnc2ccccc12)N1CCC(n2c(=O)[nH]c3ccccc32)CC1 (stereo unspecified) | inactive
86 | COc1ccc(C(c2nnnn2C2CCCCC2)N2CCC(n3c(=O)[nH]c4ccccc43)CC2)cc1 (stereo unspecified) | inactive
87 | CCN1CCC(Nc2cccc(F)c2)CC1 | inactive
88 | Cc1ccccc1NC1(C#N)CCN(Cc2ccccc2)CC1 | inactive
89 | Cc1ccccc1C(=O)NCC1(N(C)C)CCCCC1 | inactive
90 | CC(C)(C)c1ccc(C(=O)NCC2(N3CCOCC3)CCCCC2)cc1 | inactive
91 | O=C(NCC1(N2CCCCC2)CCCCC1)c1ccco1 | inactive
92 | CN1CCC(Nc2ccc(F)c(Cl)c2)CC1 | inactive
93 | CCOc1ncccc1C(=O)NCC1(N2CCOCC2)CCCCC1 | inactive
94 | NN(c1ccccc1)C1CCN(CCc2ccccc2)CC1 | inactive
95 | CC(C)(C)OC(=O)N1CCC(Nc2ccccc2)CC1 | inactive
96 | CCCOc1ccc(C(=O)NCC2(N(C)C)CCCCC2)cc1 | inactive
97 | COc1cccc(C(=O)N(c2cc(C)cc(C)c2)C2CCN(C(=O)OC(C)(C)C)CC2)c1 | inactive
98 | COc1cc(C(=O)NCC2(N3CCOCC3)CCCCC2)cc(OC)c1OC | inactive
99 | COc1cccc(C(c2nnnn2C2CCCC2)N2CCC(n3c(=O)[nH]c4ccccc43)CC2)c1OC (stereo unspecified) | inactive
100 | COc1cc(OC)cc(C(=O)NCC2(N3CCOCC3)CCCCC2)c1 | inactive
101 | CCC(CO)(C(=O)OC1CN2CCC1CC2)c1ccccc1 (stereo unspecified) | inactive
